Chains of the proteins cited; added tags and fusions are not shown. Lines headed by an entry give the natural chain unless they say otherwise; changes in a name come on top.
UniProt Q12809: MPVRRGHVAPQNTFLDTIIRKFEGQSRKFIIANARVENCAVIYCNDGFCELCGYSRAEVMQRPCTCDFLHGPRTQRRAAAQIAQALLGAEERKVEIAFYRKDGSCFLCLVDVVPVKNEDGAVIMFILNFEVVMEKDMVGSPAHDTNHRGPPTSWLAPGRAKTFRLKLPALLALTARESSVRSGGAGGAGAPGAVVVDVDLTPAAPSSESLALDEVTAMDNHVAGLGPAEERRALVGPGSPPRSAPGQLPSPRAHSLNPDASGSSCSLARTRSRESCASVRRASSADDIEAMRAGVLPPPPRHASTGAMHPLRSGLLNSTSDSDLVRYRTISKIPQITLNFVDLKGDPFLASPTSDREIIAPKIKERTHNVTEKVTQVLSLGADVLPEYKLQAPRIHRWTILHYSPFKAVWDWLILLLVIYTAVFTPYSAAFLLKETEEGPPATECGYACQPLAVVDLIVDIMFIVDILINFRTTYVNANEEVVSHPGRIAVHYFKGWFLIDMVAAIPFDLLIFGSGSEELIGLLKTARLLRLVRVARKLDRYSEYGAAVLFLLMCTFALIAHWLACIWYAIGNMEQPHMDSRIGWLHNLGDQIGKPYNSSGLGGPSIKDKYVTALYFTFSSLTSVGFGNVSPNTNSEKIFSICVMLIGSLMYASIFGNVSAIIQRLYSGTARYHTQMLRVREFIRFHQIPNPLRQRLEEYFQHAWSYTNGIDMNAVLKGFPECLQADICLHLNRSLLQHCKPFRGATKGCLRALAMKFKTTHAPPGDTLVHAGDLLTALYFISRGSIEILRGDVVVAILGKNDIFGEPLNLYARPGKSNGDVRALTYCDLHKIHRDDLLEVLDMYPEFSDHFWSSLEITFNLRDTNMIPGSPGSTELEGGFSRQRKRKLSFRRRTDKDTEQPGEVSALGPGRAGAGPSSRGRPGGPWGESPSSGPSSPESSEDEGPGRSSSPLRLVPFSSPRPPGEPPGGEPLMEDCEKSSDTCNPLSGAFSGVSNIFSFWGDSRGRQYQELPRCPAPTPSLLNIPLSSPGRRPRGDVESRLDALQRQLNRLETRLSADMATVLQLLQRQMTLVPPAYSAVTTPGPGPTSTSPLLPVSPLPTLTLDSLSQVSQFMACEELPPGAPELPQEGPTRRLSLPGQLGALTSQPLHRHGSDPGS

According to US11213590B2, “SSTR-targeted conjugates and particles and formulations thereof” (priority 2016, dated 2022):

Target: human Ether-á-go-go-Related Gene (hERG) ion channel (Homo sapiens, UniProt Q12809)
Test: hERG ion channel inhibition, IonWorks Quattro patch clamp
Format: cell-based
Conditions: up to 10 μM
Protocol: The purpose of this study was to evaluate the potential of Conjugate 57 to prolong the QT interval via modulation of the ion channel, human Ether-á-go-go Related Gene (hERG). The potential inhibition of the ion channel activity by Conjugate 57 was tested using an IonWorks Quattro electrophysiological platform, which is an automated high-throughput patch clamp system. Conjugate 57 was tested at eight different concentrations, starting at a high concentration of 10 μM and a low concentration of 0.005 μM with a minimum of five replicates for each concentration. hERG currents were evoked by a three pulse protocol where voltage was first stepped to +40 mV for two seconds from a holding potential of −80 mV to inactivate hERG channels. The voltage is then stepped back to −50 mV for two seconds to evoke a tail current prior to returning to the holding potential for 1 second. The voltage protocol was applied (Pre), compounds added, incubated for 600 seconds, and the voltage protocol was applied a final time (Post) on the IonWorks Quattro. Dimethyl sulfoxide (DMSO) was used as a negative control and Cisapride was used as a positive control.

COc1cc(N)c(Cl)cc1C(=O)NC1CCN(CCCOc2ccc(F)cc2)CC1OC (stereo not shown) [Cisapride, reference compound]
hERG ion channel inhibition (in words): inhibited evoked currents in a dose dependent fashion
